Laboratory results from PMC2915928 (Bioorganic & medicinal chemistry, 2009).
Where two headings read alike, the source gives them in different places.

Chains of the proteins cited; added tags and fusions are not shown. Lines headed by an entry give the natural chain unless they say otherwise; changes in a name come on top.
UniProt P41146: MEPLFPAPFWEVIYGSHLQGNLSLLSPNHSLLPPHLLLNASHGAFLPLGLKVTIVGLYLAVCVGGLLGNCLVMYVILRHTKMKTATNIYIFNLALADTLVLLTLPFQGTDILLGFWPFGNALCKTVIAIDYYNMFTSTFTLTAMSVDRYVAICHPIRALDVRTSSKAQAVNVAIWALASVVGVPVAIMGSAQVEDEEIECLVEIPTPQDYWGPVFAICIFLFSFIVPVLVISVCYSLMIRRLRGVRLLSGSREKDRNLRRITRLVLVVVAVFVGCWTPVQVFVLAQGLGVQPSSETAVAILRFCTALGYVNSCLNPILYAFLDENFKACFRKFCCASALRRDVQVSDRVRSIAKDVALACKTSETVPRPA
UniProt P42866, whole entry: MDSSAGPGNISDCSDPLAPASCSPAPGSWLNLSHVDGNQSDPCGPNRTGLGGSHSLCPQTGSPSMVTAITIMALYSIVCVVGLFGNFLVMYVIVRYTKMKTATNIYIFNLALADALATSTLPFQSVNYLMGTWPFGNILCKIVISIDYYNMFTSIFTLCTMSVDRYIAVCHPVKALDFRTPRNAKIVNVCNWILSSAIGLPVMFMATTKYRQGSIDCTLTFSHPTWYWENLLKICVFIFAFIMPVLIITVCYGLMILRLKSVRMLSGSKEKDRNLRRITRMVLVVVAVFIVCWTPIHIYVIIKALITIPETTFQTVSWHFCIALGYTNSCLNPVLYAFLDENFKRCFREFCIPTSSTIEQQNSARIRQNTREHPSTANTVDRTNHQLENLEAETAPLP

Key:
[1] = molecular target: nociceptin (NOP) receptor (Homo sapiens, UniProt P41146); type: biochemical
[2] = molecular target: T1, μ-opioid receptor (Mus musculus, UniProt P42866); experiment: biochemical
[3] = molecular target: T1, μ-opioid receptor; experiment: biochemical; remark: listed apart in the source
[4] = molecular target: T1, μ-opioid receptor; experiment: biochemical; remark: listed apart in the source

| Compound | EC50 [3] [µM] | Ki [4] [µM] | further results |
| --- | --- | --- | --- |
| nociceptin [Compound 15, reference compound] |  |  | NOP Emax, stimulation of [35S]GTPγS binding [1]: 109 ± 11% |
| Cc1ccc(C(=O)N[C@@H]2CC[C@@]3(O)[C@H]4Cc5ccc(O)c6c5[C@@]3(CCN4CC3CC3)[C@H]2O6)cc1 [Compound 4, 17-Cyclopropylmethyl-3, 14β-dihydroxy-4, 5α-epoxy-6 β-[(4′-methyl)benzamido] morphinan] |  |  | EC50 [2]: > 10 µM; Emax ([3]; read-out: μ Emax, inhibition of basal [35S]GTPγS binding): 33 ± 2.4% |
| O=C(N[C@@H]1CC[C@@]2(O)[C@H]3Cc4ccc(O)c5c4[C@@]2(CCN3CC2CC2)[C@H]1O5)c1ccc(I)cc1 [Compound 7, 17-Cyclopropylmethyl-3,14β-dihydroxy-4,5α-epoxy-6β-[(4′-iodo)benzamido] morphinan] | > 10 | > 10 |  |
| O=C(N[C@@H]1CC[C@@]2(O)[C@H]3Cc4ccc(O)c5c4[C@@]2(CCN3CC2CC2)[C@H]1O5)c1ccc(C(F)(F)F)cc1 [Compound 5, 17-Cyclopropylmethyl-3,14β-dihydroxy-4, 5α-epoxy-6β-[(4′-trimethylfluoro)benzamido] morphinan] | > 10 | > 10 |  |
| O=C(N[C@@H]1CC[C@@]2(O)[C@H]3Cc4ccc(O)c5c4[C@@]2(CCN3CC2CC2)[C@H]1O5)c1ccc(Cl)cc1 [Compound 10, 17-cyclopropylmethyl-3,14β-dihydroxy-4,5α-epoxy-6β-[(4′-chloro)benzamido] morphinan] | > 10 |  |  |
| O=C(N[C@@H]1CC[C@@]2(O)[C@H]3Cc4ccc(O)c5c4[C@@]2(CCN3CC2CC2)[C@H]1O5)c1ccc(Br)cc1.O=C(O)C(=O)O [Compound 6, 17-Cyclopropylmethyl-3,14β-dihydroxy-4,5α-epoxy-6β-[(4′-bromo)benzamido] morphinan] | > 10 | > 10 |  |
| CC(C)(C)c1ccc(C(=O)N[C@@H]2CC[C@@]3(O)[C@H]4Cc5ccc(O)c6c5[C@@]3(CCN4CC3CC3)[C@H]2O6)cc1 [Compound 8, 17-Cyclopropylmethyl-3,14β-dihydroxy-4,5α-epoxy-6β-[(4′-t-butyl)benzamido] morphinan] |  | > 10 | EC50 [2]: > 10 µM |
